## Ab-14 heavy chain CDR variants: yeast mating affinities

Source: Li et al. 2023 (doi:10.1038/s41467-023-39022-2), MIT Lincoln Laboratory and A-Alpha Bio; data file from the FLAb repository.

Target: peptide PDVDLGDISGINAS, taken from heptad repeat 2 (HR2) of SARS-CoV-2 spike.

Parent: Ab-14, a human scFv built as VH, a 15-residue (Gly4Ser)3 linker, VL. Only the CDRs of the heavy chain vary.
VH: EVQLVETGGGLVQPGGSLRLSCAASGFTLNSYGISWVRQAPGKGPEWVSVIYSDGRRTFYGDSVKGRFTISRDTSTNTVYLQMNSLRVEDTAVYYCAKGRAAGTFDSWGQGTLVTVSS
VL: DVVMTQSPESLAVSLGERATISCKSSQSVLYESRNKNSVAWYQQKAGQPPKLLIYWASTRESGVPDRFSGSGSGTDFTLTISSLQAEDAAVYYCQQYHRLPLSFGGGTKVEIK

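Phage display of a naive human antibody library on the peptide gave the parent. The variants were designed computationally from a first round of random CDR variants and then made and measured. Their group label is 14H_En_Gen (En: ensemble of fine-tuned language models; Gen: genetic algorithm). The assay is AlphaSeq: two haploid yeast populations carry antibody and antigen on their surface. Mating (16 h, 30 °C) was followed by selection of diploids and sequencing of their barcodes. Read counts were normalised to the haploid input and turned into Kd by a linear fit to BCL2-family pairs of known affinity, for each replicate. Each pool was mated in six replicate cultures.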

Variants are written as CDR1, CDR2 and CDR3 of the heavy chain (limits as in the source). Parent: GFTLNSYGIS, VIYSDGRRTFYGDSVK, GRAAGTFDS.
Numbers give log10(Kd / nM), so 0 is 1 nM and 3 is 1 µM. Smaller is tighter.
"nd" means that the variant was in the library but no mating with the target was seen in that replicate; the authors take this as a sign of poor binding, and no number exists.
Values of this round are not directly comparable with the first-round values of the same sequences.
In the paper, a design with two or fewer of six values counts as a poor binder.
Three control strains display no target. For all heavy chain designs, 1% of the pairings with them gave a signal, with a median of 2.08 and one signal in twenty below 0.84, so weak values seen in few replicates may be background. Also given: how often the same scFv was detected with the empty control strains, with their mean in brackets.

CDR-H1	CDR-H2	CDR-H3	replicates, log10 nM	signal with controls
GFDLEDYGIS	VIYADGRRTAYADSVK	GEVAGTFDV	-0.17 / -0.73 / -0.25 / -0.35 / -0.53 / -0.45	1/18 (1.16)
GFDLNEYGIS	VIYADGVRTAYTDSVK	GNVAGTFDV	-0.66 / -0.32 / -0.68 / -0.75 / -0.46 / -0.08	0/18
GFDLNEYGIS	VIYADGQRTFYADSVK	GGNAGTFDV	0.10 / -0.07 / -0.26 / -0.23 / 0.05 / 0.20	1/18 (3.63)
GFDLNEYGIS	VIYADGMRTAYVDSVK	GEVAGTFDM	-0.02 / 0.00 / -0.26 / -0.20 / -0.26 / -0.02	0/18
GFDLNEYGIS	VIYADGVRTAYADKVK	GNEAGTFDV	-0.25 / -0.52 / -0.20 / -0.17 / -0.49 / -0.42	0/18
GFDLNEYGIS	VIYADGMRTAYADSVK	GNTAGTFDQ	-0.58 / -0.70 / -1.04 / -0.90 / -0.77 / -0.53	0/18
GFDLNEYGIS	VIYADGVRTAYADAVK	GNVAGTFDV	-0.18 / -0.10 / -0.15 / -0.17 / -0.04 / 0.02	0/18
GFDLNEYGIS	VIYADGMRTAYTDSVK	GNTAGTFDT	-0.57 / -0.75 / -0.90 / -1.20 / -1.17 / -0.88	0/18
GFDLNEYGIS	VIYADGKRTAYADSVK	GQNAGTFDM	0.23 / -0.30 / -0.43 / -0.58 / 0.55 / -0.56	0/18
GFDLDEYGIS	VIYADGMRTAYSDSVK	GNQAGTFDI	-0.44 / -0.14 / -0.71 / -1.00 / -0.94 / -0.34	0/18
GFDLDEYGIS	VIYADGMRTVYADSVK	GTNAGTFDV	-0.39 / -0.50 / -0.74 / -0.81 / -0.74 / -0.54	0/18
GFNLDEYGIS	VIYADGMRTAYSDSVK	GEVAGTFDL	-0.80 / -0.88 / -0.98 / -1.41 / -1.07 / -0.23	1/18 (-0.20)
GFDLNEYGIS	VIYADGMRTAYADSVK	GNVAGTFTL	0.03 / 0.07 / -0.08 / 0.27 / -0.18 / -0.04	0/18
GFDLNEYGIS	VIYADGVRTAYSDSVK	GNTAGTFDL	1.20 / 1.33 / 0.53 / 0.87 / 0.68 / 1.15	1/18 (1.25)
GFDLNEYGIS	VIYADGMRTAYVDSVK	GKNAGTFDV	-0.36 / -0.46 / -0.68 / -0.82 / -0.67 / -0.45	0/18
GFDLDEYGIS	VIYADGKRTAYADSVK	GENAGTFDL	-0.59 / -0.26 / -0.18 / -0.75 / -0.71 / -0.33	0/18
GFDLNEYGIS	VIYADGKRTAYADKVK	GENAGTFDI	0.08 / 0.09 / 0.19 / -0.47 / 0.10 / -0.45	0/18
GFDLNEYGIS	VIYADGKRTYYADSVK	GSNAGTFDV	0.73 / 0.69 / 0.55 / 0.08 / 0.56 / 0.66	2/18 (2.53)
GFDLNEYGIS	VIYADGKRTAYVDSVK	GNVAGTFDI	-0.53 / -0.66 / -0.58 / -0.70 / -0.87 / -0.49	0/18
GFDLDEYGIS	VIYADGQRTAYSDSVK	GEVAGTFDI	0.08 / -0.66 / -0.41 / -0.53 / -0.40 / -0.07	0/18
GFDLNEYGIS	VIYADGQRTAYADSVK	GQNAGTFDL	-0.42 / -0.21 / -0.73 / -1.00 / -0.45 / -0.29	0/18
GFDLNEYGIS	VIYADGMRTFYADSVK	GNVAGTFDL	0.05 / -0.35 / -0.21 / -0.42 / -0.96 / -0.44	0/18
GFDLNEYGIS	VIYADGSRTAYADDVK	GENAGTFDQ	-0.07 / -0.09 / 0.09 / -0.45 / 0.07 / 0.16	0/18
GFDLNEYGIS	VIYADGMRTYYADSVK	GNNAGTFDT	nd / nd / -0.08 / 0.20 / -0.53 / 0.59	0/18
GFDLNEYGIS	VIYADGMRTAYVDSVK	GNNAGTFDL	-0.22 / -0.58 / -0.45 / -0.37 / -0.59 / -0.56	0/18
GFDLNEYGIS	VIYADGMRTAYADSVK	GSNAGTFDL	-0.26 / -0.31 / -0.15 / -0.32 / 0.03 / 0.14	1/18 (1.30)
GFDLNEYGIS	VIYADGKRTAYANSVK	GNVAGTFDV	0.33 / -0.78 / -1.60 / -0.45 / -0.14 / -0.70	0/18
GFDLNEYGIS	VIYADGMRTVYADDVK	GNVAGTFDL	-0.23 / -1.80 / -1.64 / -1.59 / -1.77 / -1.44	0/18
GFDLNEYGIS	VIYADGKRKAYADSVK	GEVAGTFDV	-0.56 / -0.69 / -0.75 / -0.64 / -0.62 / -0.73	1/18 (3.00)
GFDINEYGIS	VIYADGMRTAYADSVK	GQNAGTFDV	0.02 / -0.30 / -0.03 / -0.01 / -0.19 / 0.08	0/18
GFDLNEYGIS	VIYADGSRTAYSDSVK	GNVAGTFDT	-0.67 / -1.07 / -1.23 / -1.10 / -0.84 / -0.57	0/18
GFNLDEYGIS	VIYADGMRTAYTDSVK	GNVAGTFDV	-0.08 / -0.22 / -0.02 / -0.63 / -0.45 / -0.07	0/18
GFDLDEYGIS	VIYADGKRTAYADKVK	GEVAGTFDV	-0.02 / -0.02 / -0.38 / -0.04 / 0.07 / 0.01	0/18
GFDLDEYGIS	VIYADGMRTAYADSVK	GEQAGTFDV	1.12 / -0.59 / 0.32 / -0.12 / -0.07 / 1.09	0/18
GFDLNEYGIS	VIYADGMRTAYAQDVK	GNVAGTFDV	-0.64 / nd / -1.09 / -0.33 / -0.80 / -0.04	0/18
GFDLDEYGIS	VIYADGRRTAYSDSVK	GETAGTFDQ	-0.37 / -0.16 / -0.41 / -0.59 / -0.53 / -0.29	0/18
GFDLNEYGIS	VIYADGMRTAYADNVK	GNVAGTFDQ	-0.34 / -0.33 / -0.54 / -0.02 / -0.12 / 0.03	0/18
GFDLDEYGIS	VIYADGMRTAYADSVK	GETAGTFDL	0.20 / -0.13 / -0.26 / -0.36 / -0.14 / -0.22	0/18
GFDLNEYGIS	VIYADGMRTAYADNVK	GHVAGTFDV	-0.26 / -0.52 / -0.50 / -0.49 / -0.55 / -0.21	1/18 (2.99)
GFDLNEYGIS	VIYADGMRTYYADSVK	GEVAGTFDI	0.07 / -0.31 / 0.02 / -0.35 / -0.44 / -0.17	0/18

6 of these entries, quoted again:

CDR-H1	CDR-H2	CDR-H3	replicates, log10 nM	signal with controls
GFNLDEYGIS	VIYADGMRTAYTDSVK	GNVAGTFDV	-0.08 / -0.22 / -0.02 / -0.63 / -0.45 / -0.07	0/18
GFDLNEYGIS	VIYADGQRTFYADSVK	GGNAGTFDV	0.10 / -0.07 / -0.26 / -0.23 / 0.05 / 0.20	1/18 (3.63)
GFDLDEYGIS	VIYADGQRTAYSDSVK	GEVAGTFDI	0.08 / -0.66 / -0.41 / -0.53 / -0.40 / -0.07	0/18
GFNLDEYGIS	VIYADGMRTAYSDSVK	GEVAGTFDL	-0.80 / -0.88 / -0.98 / -1.41 / -1.07 / -0.23	1/18 (-0.20)
GFDLNEYGIS	VIYADGMRTVYADDVK	GNVAGTFDL	-0.23 / -1.80 / -1.64 / -1.59 / -1.77 / -1.44	0/18
GFDLNEYGIS	VIYADGMRTFYADSVK	GNVAGTFDL	0.05 / -0.35 / -0.21 / -0.42 / -0.96 / -0.44	0/18